Measured values reported in patent EP4847505A1, “4-METHYLSULFONYL-SUBSTITUTED PIPERIDINE UREA COMPOUNDS” (dated 2026).

By UniProt entry, the sequences of proteins in these tests, tags left out.
UniProt Q9BE39, whole entry: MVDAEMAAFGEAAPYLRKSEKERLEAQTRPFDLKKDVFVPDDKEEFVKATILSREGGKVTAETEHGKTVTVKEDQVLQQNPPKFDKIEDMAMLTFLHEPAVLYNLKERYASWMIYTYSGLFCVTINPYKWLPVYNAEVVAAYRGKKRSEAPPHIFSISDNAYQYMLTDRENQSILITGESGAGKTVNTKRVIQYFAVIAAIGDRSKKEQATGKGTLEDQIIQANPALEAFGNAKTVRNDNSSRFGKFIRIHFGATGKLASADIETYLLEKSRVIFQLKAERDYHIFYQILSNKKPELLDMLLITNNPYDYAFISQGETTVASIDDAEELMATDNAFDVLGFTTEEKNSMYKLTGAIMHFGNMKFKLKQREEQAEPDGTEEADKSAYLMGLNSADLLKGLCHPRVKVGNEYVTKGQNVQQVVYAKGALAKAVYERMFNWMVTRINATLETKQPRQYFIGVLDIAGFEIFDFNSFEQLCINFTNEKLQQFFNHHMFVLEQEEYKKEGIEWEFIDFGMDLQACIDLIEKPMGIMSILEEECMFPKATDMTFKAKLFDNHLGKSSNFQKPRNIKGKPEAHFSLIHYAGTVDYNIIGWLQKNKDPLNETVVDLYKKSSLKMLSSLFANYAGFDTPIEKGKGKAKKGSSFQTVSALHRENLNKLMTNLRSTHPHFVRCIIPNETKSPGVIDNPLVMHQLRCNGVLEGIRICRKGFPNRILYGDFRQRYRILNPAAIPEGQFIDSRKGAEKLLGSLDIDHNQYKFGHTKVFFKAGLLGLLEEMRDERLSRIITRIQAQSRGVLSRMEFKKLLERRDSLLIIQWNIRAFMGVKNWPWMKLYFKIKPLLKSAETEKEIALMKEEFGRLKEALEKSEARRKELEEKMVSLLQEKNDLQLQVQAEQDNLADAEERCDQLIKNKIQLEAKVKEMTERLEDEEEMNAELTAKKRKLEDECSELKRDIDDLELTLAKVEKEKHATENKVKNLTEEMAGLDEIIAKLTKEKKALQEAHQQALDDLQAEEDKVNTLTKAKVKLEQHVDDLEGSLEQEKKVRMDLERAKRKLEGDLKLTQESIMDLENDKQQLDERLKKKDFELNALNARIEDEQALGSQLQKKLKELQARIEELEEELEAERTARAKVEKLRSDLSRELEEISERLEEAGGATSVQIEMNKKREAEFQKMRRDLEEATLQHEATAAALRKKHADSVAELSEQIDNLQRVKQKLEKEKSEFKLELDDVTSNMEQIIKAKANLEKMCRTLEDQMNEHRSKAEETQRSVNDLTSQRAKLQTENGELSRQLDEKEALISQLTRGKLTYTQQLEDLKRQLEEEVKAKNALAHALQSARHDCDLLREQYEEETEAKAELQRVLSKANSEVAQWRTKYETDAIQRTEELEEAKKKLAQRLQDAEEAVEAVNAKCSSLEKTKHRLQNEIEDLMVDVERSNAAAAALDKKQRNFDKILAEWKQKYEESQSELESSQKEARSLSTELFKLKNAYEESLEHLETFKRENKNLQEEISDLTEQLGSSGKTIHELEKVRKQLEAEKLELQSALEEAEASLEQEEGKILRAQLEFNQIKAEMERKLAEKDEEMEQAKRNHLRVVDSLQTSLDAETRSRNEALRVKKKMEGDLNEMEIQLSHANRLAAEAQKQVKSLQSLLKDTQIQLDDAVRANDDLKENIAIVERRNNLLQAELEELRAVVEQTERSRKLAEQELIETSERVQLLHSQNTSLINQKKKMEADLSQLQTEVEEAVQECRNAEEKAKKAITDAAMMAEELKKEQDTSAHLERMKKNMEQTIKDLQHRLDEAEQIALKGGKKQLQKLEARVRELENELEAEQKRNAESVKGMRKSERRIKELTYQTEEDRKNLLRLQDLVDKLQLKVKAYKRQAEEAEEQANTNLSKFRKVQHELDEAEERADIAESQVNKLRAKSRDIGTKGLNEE
UniProt P85100, whole entry partner: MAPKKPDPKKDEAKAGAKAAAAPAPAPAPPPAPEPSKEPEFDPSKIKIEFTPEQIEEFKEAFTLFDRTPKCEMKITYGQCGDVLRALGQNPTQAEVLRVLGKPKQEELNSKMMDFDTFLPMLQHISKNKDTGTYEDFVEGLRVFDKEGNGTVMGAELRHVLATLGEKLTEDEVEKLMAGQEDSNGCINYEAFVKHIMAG
UniProt Q3SZE5, whole entry partner: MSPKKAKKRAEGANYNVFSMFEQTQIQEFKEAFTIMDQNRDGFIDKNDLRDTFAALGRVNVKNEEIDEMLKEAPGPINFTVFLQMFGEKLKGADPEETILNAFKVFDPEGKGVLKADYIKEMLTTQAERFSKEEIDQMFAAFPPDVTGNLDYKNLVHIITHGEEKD

Each compound was assayed against bovine cardiac myosin (Bos taurus, UniProt Q9BE39) (assay: Myosin activation assay (PK/LDH-coupled ATPase, bovine cardiac myofibrils)). Details: concentration at which the total response is increased by twenty percent.
Experimental: Small molecule agents were assessed for their ability to activate the enzymatic activity of bovine cardiac myosin using a biochemical assay that couples the release of ADP (adenosine diphosphate) from cardiac myosin to an enzymatic coupling system consisting of pyruvate kinase and lactate dehydrogenase (PK/LDH) and monitoring the absorbance decrease of NADH (at 340 nm) as a function of time. PK converts ADP to ATP (adenosine triphosphate) by converting PEP (phosphoenolpyruvate) to pyruvate. Pyruvate is then converted to lactate by LDH by converting NADH (nicotinamide adenine dinucleotide) to NAD (oxidized nicotinamide adenine dinucleotide). The source of cardiac myosin was from bovine heart in the form of skinned myofibrils. Prior to testing small molecule agents, the bovine myofibrils were assessed for their calcium responsiveness and the calcium concentration that achieves either a 50% (pCa50 or pCa = ~ 6) or < 5% (pCa = 10) activation of the myofibril system was chosen as the final condition for assessing the activation activity of the small molecule agents. All enzymatic activity was measured in a buffered solution containing 12 mM PIPES (piperazine-N,N'-bis(2-ethanesulfonic acid), 2 mM magnesium chloride at pH 6.8 (PM12 buffer). Final assay conditions were 1 mg/mL of bovine cardiac myofibrils, 0.4 mM PK/LDH, 50 uM ATP, 0.1 mg/mL BSA (bovine serum albumin), 10 ppm antifoam, 2 mM BME, 0.5 mM NADH, 1.5 mM PEP at the desired free calcium concentration required to achieve either 50% or < 5% activation of the myofibrils.
A dilution series of compound was created in DMSO such that the final desired concentration of compound would be achieved in a volume of 100 µL with a fixed DMSO concentration of 3.3% (v/v). Typically a 1 µL of the dilution series was added to a 384 well plate to achieve a 10 point dose response. Following the addition of 14 µL of a solution containing bovine cardiac myofibrils, PK/LDH and a solution of calcium (that achieved the desired activation), the enzymatic reaction was started with the addition of 15 µL of a solution containing ATP, PEP and NADH. The reaction progress was followed in a PerkinElmer Envision plate reader at ambient temperature using clear bottom plates. The plate reader was configured to read absorbance at 340 nm in kinetics mode for 15 minutes. Data were recorded as the slope of the absorbance response to time. The slopes of the absorbance response as a function of time were normalized to slopes on the plate containing DMSO. This normalized rate was then plotted as a function of small molecule concentration and the data was fitted to a four-parameter fit using EXCEL XLfit. The concentration at which the total response is increased by twenty or fifty percent is reported as AC20 or AC50. […] Table 2. Myosin Activation of Selected Compoundsa

SMILES	Myosin Activation (AC20)
COc1ccccc1S(=O)(=O)C(C)(C)C1CCN(C(=O)Nc2ccncc2)CC1	+++ (+++ represents myosin activation value AC20 < 2 µM)
C[C@@](F)(C1CCN(C(=O)Nc2ccon2)CC1)S(=O)(=O)c1cccc(F)c1	+ (+ represents myosin activation value AC20 > 5 µM)
CC(F)(C1CCN(C(=O)Nc2ccnnc2)CC1)S(=O)(=O)c1ccc(C#N)cc1 (stereo not drawn)	+++ (+++ represents myosin activation value AC20 < 2 µM)
CC(C)(C1CCN(C(=O)Nc2ccc(F)nc2)CC1)S(=O)(=O)c1ccc(C#N)cc1	+ (+ represents myosin activation value AC20 > 5 µM)
Cc1ccccc1S(=O)(=O)C1(C2CCN(C(=O)Nc3ccncc3)CC2)CC1	+++ (+++ represents myosin activation value AC20 < 2 µM)
Cn1nccc1NC(=O)N1CCC(C(C)(C)S(=O)(=O)c2cccc(F)c2)CC1	+ (+ represents myosin activation value AC20 > 5 µM)
CC(C)(C1CCN(C(=O)Nc2cn[nH]c2)CC1)S(=O)(=O)c1cccc(F)c1	++ (++ represents myosin activation value AC20 from 2 µM - 5 µM)
CC(C)(C1CCN(C(=O)Nc2ccnnc2)CC1)S(=O)(=O)c1ccc(C#N)cc1	++ (++ represents myosin activation value AC20 from 2 µM - 5 µM)
Cn1cc(S(=O)(=O)[C@@](C)(F)C2CCN(C(=O)Nc3cocn3)CC2)c(C(F)F)n1	+ (+ represents myosin activation value AC20 > 5 µM)
[2H]C([2H])([2H])n1cc(S(=O)(=O)[C@](F)(C2CCN(C(=O)Nc3ccon3)CC2)C([2H])([2H])[2H])c(C(F)F)n1	+ (+ represents myosin activation value AC20 > 5 µM)
Cn1cc(S(=O)(=O)C(C)(F)C2CCN(C(=O)Nc3ccnnc3)CC2)c(C(F)F)n1 (stereo not drawn)	+++ (+++ represents myosin activation value AC20 < 2 µM)
CC(F)(C1CCN(C(=O)Nc2ccnnc2)CC1)S(=O)(=O)c1ccc(C(F)(F)F)nc1 (stereo not drawn)	+++ (+++ represents myosin activation value AC20 < 2 µM)
Cn1cc(S(=O)(=O)[C@@](C)(F)C2CCN(C(=O)Nc3ccon3)CC2)c(C(F)F)n1	+++ (+++ represents myosin activation value AC20 < 2 µM)
CC(C)(C1(O)CCN(C(=O)Nc2ccnnc2)CC1)S(=O)(=O)c1cccc(F)c1	+ (+ represents myosin activation value AC20 > 5 µM)
O=C(Nc1ccnnc1)N1CCC(C(F)(F)S(=O)(=O)c2ccc(C(F)(F)F)c(F)c2)CC1	++ (++ represents myosin activation value AC20 from 2 µM - 5 µM)
COc1c(F)cccc1S(=O)(=O)C(F)(F)C1CCN(C(=O)Nc2ccnnc2)CC1	++ (++ represents myosin activation value AC20 from 2 µM - 5 µM)
CC(C)(C1CCN(C(=O)Nc2ccon2)CC1)S(=O)(=O)c1cccc(F)c1	+ (+ represents myosin activation value AC20 > 5 µM)
Cc1cc(C#N)ccc1S(=O)(=O)C(F)(F)C1CCN(C(=O)Nc2ccnnc2)CC1	++ (++ represents myosin activation value AC20 from 2 µM - 5 µM)
Cc1ccc(NC(=O)N2CCC(C(C)(C)S(=O)(=O)c3ccnn3C)CC2)cn1	+ (+ represents myosin activation value AC20 > 5 µM)
O=C(Nc1ccns1)N1CCC(C2(S(=O)(=O)c3cc(F)cc(F)c3)CC2)CC1	+++ (+++ represents myosin activation value AC20 < 2 µM)
N#Cc1cc(C(F)(F)F)ccc1S(=O)(=O)C(F)(F)C1CCN(C(=O)Nc2ccnnc2)CC1	+++ (+++ represents myosin activation value AC20 < 2 µM)
Cn1cncc1S(=O)(=O)C(C)(C)C1CCN(C(=O)Nc2ccnnc2)CC1	+ (+ represents myosin activation value AC20 > 5 µM)
Cn1nccc1S(=O)(=O)C(C)(C)C1CCN(C(=O)Nc2ccnc(F)c2)CC1	++ (++ represents myosin activation value AC20 from 2 µM - 5 µM)
Cc1ccc(NC(=O)N2CCC(C(F)(F)S(=O)(=O)c3cn(C)nc3C(F)F)CC2)cn1	+ (+ represents myosin activation value AC20 > 5 µM)
Cn1nc(C(F)F)cc1S(=O)(=O)C(C)(F)C1CCN(C(=O)Nc2ccnnc2)CC1 (stereo not drawn)	+++ (+++ represents myosin activation value AC20 < 2 µM)
C[C@@H](O)c1cc(NC(=O)N2CCC(C(F)(F)S(=O)(=O)c3cn(C)nc3C(F)F)CC2)ccn1	+ (+ represents myosin activation value AC20 > 5 µM)

SMILES	Myosin Activation (AC20)
Cn1nc(C(F)F)cc1S(=O)(=O)C(C)(C)C1CCN(C(=O)Nc2ccc(F)nc2)CC1	++ (++ represents myosin activation value AC20 from 2 µM - 5 µM)
CC(F)(C1CCN(C(=O)Nc2ccnc(F)c2)CC1)S(=O)(=O)c1ccc(C(F)(F)F)cc1 (stereo not drawn)	++ (++ represents myosin activation value AC20 from 2 µM - 5 µM)
CC(F)(C1CCN(C(=O)Nc2cnns2)CC1)S(=O)(=O)c1ccc(C#N)cc1 (stereo not drawn)	+++ (+++ represents myosin activation value AC20 < 2 µM)
C[C@@](F)(C1CCN(C(=O)Nc2ccnnc2)CC1)S(=O)(=O)c1cccc(F)c1	+ (+ represents myosin activation value AC20 > 5 µM)
Cc1ccccc1S(=O)(=O)C(C)(C)C1CCN(C(=O)Nc2ccncc2)CC1	+++ (+++ represents myosin activation value AC20 < 2 µM)
O=C(Nc1ccnnc1)N1CCC(C(F)(F)S(=O)(=O)c2ccc(C3CC3)nc2)CC1	++ (++ represents myosin activation value AC20 from 2 µM - 5 µM)
CC(C)(C1(F)CCN(C(=O)Nc2ccnnc2)CC1)S(=O)(=O)c1cccc(F)c1	++ (++ represents myosin activation value AC20 from 2 µM - 5 µM)
O=C(Nc1ccncc1)N1CCC(CS(=O)(=O)c2cccc(F)c2)CC1	+ (+ represents myosin activation value AC20 > 5 µM)
CCC(F)(C1CCN(C(=O)Nc2ccnnc2)CC1)S(=O)(=O)c1cccc(F)c1 (stereo not drawn)	++ (++ represents myosin activation value AC20 from 2 µM - 5 µM)
Cn1nc(C(F)(F)F)cc1S(=O)(=O)C(C)(F)C1CCN(C(=O)Nc2ccc(F)nc2)CC1 (stereo not drawn)	++ (++ represents myosin activation value AC20 from 2 µM - 5 µM)
O=C(Nc1ccnnc1)N1CCC(C(F)(F)S(=O)(=O)c2cccc(C(F)(F)F)c2)CC1	++ (++ represents myosin activation value AC20 from 2 µM - 5 µM)
Cn1cc(S(=O)(=O)[C@](C)(F)C2CCN(C(=O)Nc3ccc(F)nc3)CC2)c(C(F)F)n1	+ (+ represents myosin activation value AC20 > 5 µM)
CC(F)(C1CCN(C(=O)Nc2ccnnc2)CC1)S(=O)(=O)c1cccc(Cl)c1 (stereo not drawn)	+++ (+++ represents myosin activation value AC20 < 2 µM)
CC(C)(C1CCN(C(=O)Nc2ccon2)CC1)S(=O)(=O)c1ccc(C#N)cc1	+ (+ represents myosin activation value AC20 > 5 µM)
C[C@](F)(C1CCN(C(=O)Nc2ccc(CO)nc2)CC1)S(=O)(=O)c1cccc(F)c1	+ (+ represents myosin activation value AC20 > 5 µM)
Cn1cc(S(=O)(=O)C(C)(C)C2CCN(C(=O)Nc3cccnc3)CC2)c(C(F)F)n1	+++ (+++ represents myosin activation value AC20 < 2 µM)
COc1ccccc1S(=O)(=O)C(C)(C)C1CCN(C(=O)Nc2ccns2)CC1	++ (++ represents myosin activation value AC20 from 2 µM - 5 µM)
N#Cc1ccccc1S(=O)(=O)C1(C2CCN(C(=O)Nc3ccnnc3)CC2)CC1	++ (++ represents myosin activation value AC20 from 2 µM - 5 µM)
C[C@H](O)c1cc(NC(=O)N2CCC([C@@](C)(F)S(=O)(=O)c3cn(C)nc3C(F)F)CC2)ccn1	+ (+ represents myosin activation value AC20 > 5 µM)
CC(F)(C1CCN(C(=O)Nc2ccnnc2)CC1)S(=O)(=O)c1cc(F)cc(F)c1 (stereo not drawn)	+++ (+++ represents myosin activation value AC20 < 2 µM)
CC(C)(C1CCN(C(=O)Nc2ccnnc2)CC1)S(=O)(=O)c1ccccc1C(F)(F)F	++ (++ represents myosin activation value AC20 from 2 µM - 5 µM)
Cn1cc(S(=O)(=O)C(C)(C)C2CCN(C(=O)Nc3ccnnc3)CC2)cn1	+ (+ represents myosin activation value AC20 > 5 µM)
CC(C)(C1CCN(C(=O)Nc2nnco2)CC1)S(=O)(=O)c1cccc(F)c1	+ (+ represents myosin activation value AC20 > 5 µM)
Cn1nccc1S(=O)(=O)C(C)(F)C1CCN(C(=O)Nc2ccon2)CC1 (stereo not drawn)	+ (+ represents myosin activation value AC20 > 5 µM)
Cn1cc(S(=O)(=O)C(C)(C)C2CCN(C(=O)Nc3ccnc(F)c3)CC2)c(C(F)F)n1	+++ (+++ represents myosin activation value AC20 < 2 µM)
